## Antibody variant affinities, Ab-91 heavy chain, assay 2

Reference: Engelhart et al. 2022, doi:10.1038/s41597-022-01779-4. File: FLAb, binding data.

All variants were tested on one target, the spike HR2 peptide PDVDLGDISGINAS (SARS-CoV-2).

Each scFv is VL, a 15-residue (Gly4Ser)3 linker, VH, as in the parent Ab-91, and differs from it in the CDRs of the heavy chain only.
VL: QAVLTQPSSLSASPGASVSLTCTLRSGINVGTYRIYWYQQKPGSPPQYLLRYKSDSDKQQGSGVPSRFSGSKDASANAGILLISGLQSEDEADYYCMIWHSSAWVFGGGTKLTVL
VH: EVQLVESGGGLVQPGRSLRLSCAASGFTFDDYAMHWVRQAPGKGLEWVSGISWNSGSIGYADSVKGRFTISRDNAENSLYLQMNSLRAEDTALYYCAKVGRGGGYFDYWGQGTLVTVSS

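Phage display of a naive human antibody library on the peptide gave the parent. Library AAYL51 holds single substitutions and randomly drawn double and triple substitutions in the CDRs. In AlphaSeq, yeast of one mating type display the scFv and yeast of the other type display the target. The frequency of each diploid, read from paired DNA barcodes, reflects how well the two displayed proteins bind. Scores were corrected for input abundance and mapped to Kd with protein pairs of known affinity run in the same pool. There are three technical replicates.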

Sequences are complete VH domains.
Every variant below is changed at G103 of the VH (sequential numbering).
Values are apparent Kd, the geometric mean of the replicates that gave a signal; lower means stronger binding.
"no signal" marks a missing value. The strain was present, yet no cells mated with the target were sequenced in any replicate, which points to weak or no binding.
For reference, the parent read 72 nM as the reference entry and 7.5 nM as a member of this library.
Empty control strains, which show no peptide, gave a signal in 21% of pairings with library AAYL51; the median was 34 µM and 95% of these signals were weaker than 1.8 µM. No background was subtracted. For each scFv, signals with the empty controls are counted beside the result.

* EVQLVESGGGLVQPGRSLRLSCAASGNAFDDYAMHWVRQAPGKGLEWVSGISWNSGSIGYADSVKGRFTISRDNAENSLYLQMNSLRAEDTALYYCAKVGRGKGYFDYWGQGTLVTVSS: 5.1 µM (1 of 3 replicates; controls 0 of 9)
* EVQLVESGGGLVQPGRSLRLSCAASGFTFDDYAMHWVRQAPGKGLEWVSGISWNSGSCGYASSVKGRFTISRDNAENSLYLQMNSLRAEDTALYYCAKVGRGDGYFDYWGQGTLVTVSS: 24 µM (1 of 3 replicates; controls 1 of 9)
* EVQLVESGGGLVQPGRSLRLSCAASGFTFDDYAMHWVRQAPGKGLEWVSGISWDSGSIGYADSVKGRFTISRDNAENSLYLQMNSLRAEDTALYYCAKVGRGCGYFDYWGQGTLVTVSS: no signal (0 of 3 replicates; controls 1 of 9)
* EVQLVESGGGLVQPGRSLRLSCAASGFTFDDYAMHWVRQAPGKGLEWVSGISWASGSIGYADSVKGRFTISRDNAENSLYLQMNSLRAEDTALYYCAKVGRFIGYFDYWGQGTLVTVSS: no signal (0 of 3 replicates; controls 1 of 9)
* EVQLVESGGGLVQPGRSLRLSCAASGFTFDDDAMHWVRQAPGKGLEWVSGISWNSGSIGYADSVKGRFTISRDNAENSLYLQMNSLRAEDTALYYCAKVGRGRGYFNYWGQGTLVTVSS: 63 µM (1 of 3 replicates; controls 1 of 9)
* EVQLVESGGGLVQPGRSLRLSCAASGFQFDYYAMHWVRQAPGKGLEWVSGISWNSGSIGYADSVKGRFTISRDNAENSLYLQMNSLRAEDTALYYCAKVGRGRGYFDYWGQGTLVTVSS: 97 µM (2 of 3 replicates; controls 1 of 9)
* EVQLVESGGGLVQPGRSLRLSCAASGFTFDDYAMHWVRQAPGKGLEWVSGISWNSGSIGYADSVKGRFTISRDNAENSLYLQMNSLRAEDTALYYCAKVGRGTGYFDYWGQGTLVTVSS: 20 nM (3 of 3 replicates; controls 3 of 9)
* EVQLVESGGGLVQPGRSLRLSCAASGETFDDYAMHWVRQAPGKGLEWVSGISWNSGDIGYADSVKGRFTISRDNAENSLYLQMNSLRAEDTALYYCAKVGRGRGYFDYWGQGTLVTVSS: no signal (0 of 3 replicates; controls 0 of 9)
* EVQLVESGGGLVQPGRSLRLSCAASGFTFDDYAMHWVRQAPGKGLEWVSGISWVSGSFGYADSVKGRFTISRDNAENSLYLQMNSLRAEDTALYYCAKVGRGYGYFDYWGQGTLVTVSS: 960 nM (1 of 3 replicates; controls 0 of 9)
* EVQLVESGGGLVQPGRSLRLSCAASGFTFDDYAMHWVRQAPGKGLEWVSGISWNSGSIGFADSVKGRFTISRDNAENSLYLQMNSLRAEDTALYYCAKVGRGYGYFDYWGQGTLVTVSS: 46 µM (1 of 3 replicates; controls 1 of 9)
* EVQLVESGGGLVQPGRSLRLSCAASTFTFDDYAMHWVRQAPGKGLEWVSGISWNSGSIAYADSVKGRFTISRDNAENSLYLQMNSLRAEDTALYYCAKVGRGDGYFDYWGQGTLVTVSS: 8.5 µM (1 of 3 replicates; controls 2 of 9)
* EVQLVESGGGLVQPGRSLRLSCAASGFTFDDYAMHWVRQAPGKGLEWVSGISWNSGSIGEAVSVKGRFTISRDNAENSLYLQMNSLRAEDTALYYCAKVGRGVGYFDYWGQGTLVTVSS: 49 µM (1 of 3 replicates; controls 1 of 9)
* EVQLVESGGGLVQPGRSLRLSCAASGFTFDDYAMHWVRQAPGKGLEWVSQISWNSGSIGYADSVKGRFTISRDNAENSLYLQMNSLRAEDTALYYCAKVGRGAGYFGYWGQGTLVTVSS: no signal (0 of 3 replicates; controls 0 of 9)
* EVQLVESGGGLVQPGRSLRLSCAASGFTFDDYAMHWVRQAPGKGLEWVSGISANSGSIGYADSVKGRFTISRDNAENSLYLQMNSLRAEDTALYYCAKVGRGDGYFAYWGQGTLVTVSS: 37 nM (3 of 3 replicates; controls 1 of 9)
* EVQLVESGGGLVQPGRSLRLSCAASKFTFDDYAMHWVRQAPGKGLEWVSGISWNSGSIGYADSVKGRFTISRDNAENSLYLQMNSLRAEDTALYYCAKVGRGSGYFDIWGQGTLVTVSS: 390 nM (2 of 3 replicates; controls 0 of 9)
* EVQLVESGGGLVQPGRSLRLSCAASGFTFDDYAKHWVRQAPGKGLEWVSGISWNSGSIGYADSVKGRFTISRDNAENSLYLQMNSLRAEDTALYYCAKVGRGWGYVDYWGQGTLVTVSS: 1.6 mM (1 of 3 replicates; controls 1 of 9)
* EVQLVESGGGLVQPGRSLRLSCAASGFTFDDYAMCWVRQAPGKGLEWVSGISWNSGSIGYADSVKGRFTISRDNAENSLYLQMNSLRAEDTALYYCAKVGRRSGYFDYWGQGTLVTVSS: 38 µM (1 of 3 replicates; controls 1 of 9)
* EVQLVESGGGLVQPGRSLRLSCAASGFTFDDTAMHWVRQAPGKGLEWVSGISWNSGSIGGADSVKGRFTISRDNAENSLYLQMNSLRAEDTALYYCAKVGRGNGYFDYWGQGTLVTVSS: 46 µM (2 of 3 replicates; controls 6 of 9)

A selection of 3 entries from above:

* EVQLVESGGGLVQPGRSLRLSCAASGFTFDDYAMHWVRQAPGKGLEWVSGISWNSGSIGEAVSVKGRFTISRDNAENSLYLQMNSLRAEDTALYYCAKVGRGVGYFDYWGQGTLVTVSS -> 49 µM (1 of 3 replicates; controls 1 of 9)
* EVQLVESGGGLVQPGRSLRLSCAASGETFDDYAMHWVRQAPGKGLEWVSGISWNSGDIGYADSVKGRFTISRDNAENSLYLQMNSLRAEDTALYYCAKVGRGRGYFDYWGQGTLVTVSS -> no signal (0 of 3 replicates; controls 0 of 9)
* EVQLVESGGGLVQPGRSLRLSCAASGFTFDDYAMHWVRQAPGKGLEWVSGISWNSGSIGYADSVKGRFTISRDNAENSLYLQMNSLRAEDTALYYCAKVGRGTGYFDYWGQGTLVTVSS -> 20 nM (3 of 3 replicates; controls 3 of 9)